From ChEMBL document CHEMBL1152978 (J Med Chem, 2009)

Assays:
Plasma = assay: Metabolic stability in human plasma assessed as elimination half life at pH 7.4; assay type: ADME, cell-free
[1] = Chemical stability assessed as half life at pH 7.4 by UV-HPLC analysis; assay type: physicochemical; details: buffer

## C[N+]12CCC(CC1)[C@@H](OC(=O)C(O)(c1cccs1)c1cccs1)C2.[Br-]
Plasma
  beta t1/2: 3.6 min

## O=C(O[C@H]1C[N+]2(CCc3ccccc3)CCC1CC2)C(O)(c1cccs1)c1cccs1.[Br-]
Plasma
  beta t1/2: 7.9 min
[1]
  t1/2: 56 min
